target: EGFR T790M L858R (Homo sapiens, UniProt P00533, L858R/T790M); assay: biochemical; settings: EGFR(T790M/L858R) Ki (μM), 5 μM ATP, 30 min, room temperature; apparent Ki (Morrison) converted by Cheng-Prusoff, Km of ATP 1.3 μM

Protein sequences, listed by entry. Tags and fused reporters are not part of them. Residues count along the entry.
UniProt P00533, 25-1210 T790M/L858R limits assumed: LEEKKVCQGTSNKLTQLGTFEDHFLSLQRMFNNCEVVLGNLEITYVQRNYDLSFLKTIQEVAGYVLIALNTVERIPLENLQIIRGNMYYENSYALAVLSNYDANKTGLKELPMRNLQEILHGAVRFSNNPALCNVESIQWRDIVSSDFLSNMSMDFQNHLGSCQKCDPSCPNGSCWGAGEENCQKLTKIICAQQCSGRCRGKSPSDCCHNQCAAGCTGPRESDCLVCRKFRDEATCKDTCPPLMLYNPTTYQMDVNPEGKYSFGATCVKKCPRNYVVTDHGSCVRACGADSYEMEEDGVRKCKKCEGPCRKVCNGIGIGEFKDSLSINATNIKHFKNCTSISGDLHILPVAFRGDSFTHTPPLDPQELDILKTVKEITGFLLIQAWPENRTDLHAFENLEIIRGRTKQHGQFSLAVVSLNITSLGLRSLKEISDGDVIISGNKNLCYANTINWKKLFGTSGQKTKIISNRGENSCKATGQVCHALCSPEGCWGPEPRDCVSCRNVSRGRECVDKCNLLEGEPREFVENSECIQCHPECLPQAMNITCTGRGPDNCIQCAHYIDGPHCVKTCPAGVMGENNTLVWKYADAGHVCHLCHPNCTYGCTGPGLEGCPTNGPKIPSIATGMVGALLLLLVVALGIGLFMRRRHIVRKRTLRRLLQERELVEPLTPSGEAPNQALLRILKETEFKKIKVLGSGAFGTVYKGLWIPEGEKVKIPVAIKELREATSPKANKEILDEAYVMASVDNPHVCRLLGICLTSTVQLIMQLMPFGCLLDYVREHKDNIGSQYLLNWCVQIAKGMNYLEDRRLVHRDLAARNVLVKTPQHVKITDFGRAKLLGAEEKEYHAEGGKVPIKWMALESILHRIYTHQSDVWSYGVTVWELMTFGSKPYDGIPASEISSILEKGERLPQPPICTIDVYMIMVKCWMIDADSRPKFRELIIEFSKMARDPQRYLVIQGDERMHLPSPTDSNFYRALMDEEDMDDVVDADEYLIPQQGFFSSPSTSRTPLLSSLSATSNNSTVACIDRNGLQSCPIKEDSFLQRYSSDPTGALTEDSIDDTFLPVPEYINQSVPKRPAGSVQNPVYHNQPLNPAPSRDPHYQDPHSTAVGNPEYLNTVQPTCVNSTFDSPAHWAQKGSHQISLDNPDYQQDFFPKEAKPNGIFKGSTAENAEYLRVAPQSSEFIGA

**Q.** `COC1(CCCO)CCN(c2nccc(Nc3cc4c(cn3)nc(C)n4C(C)C)n2)CC1` [Example 497, 3-(1-(4-((1-Isopropyl-2-methyl-1H-imidazo[4,5-c]pyridin-6-yl)amino)pyrimidin-2-yl)-4-methoxypiperidin-4-yl)propan-1-ol] was tested. Which Ki did it give?
**A.** 0.0769 µM

**Q.** Which Ki does the source give for `Cc1nc2cnc(Nc3ccnc(C4=CCOCC4)n3)cc2n1C(C)C` [Example 500, N-(2-(3,6-Dihydro-2H-pyran-4-yl)pyrimidin-4-yl)-1-isopropyl-2-methyl-1H-imidazo[4,5-c] pyridin-6-amine] here?
**A.** 0.0842 µM

**Q.** For `Cc1nc2cnc(Nc3ccnc(C4CCOCC4)n3)cc2n1C(C)C` [Example 501, 1-Isopropyl-2-methyl-N-(2-(tetrahydro-2H-pyran-4-yl)pyrimidin-4-yl)-1H-imidazo[4,5-c]pyridin-6-amine], which Ki is on record?
**A.** 0.484 µM

**Q.** Which Ki does the source give for `Cc1nc2cnc(Nc3ccnc(N4CCC5(CCNC5=O)CC4)n3)cc2n1C(C)C` [Example 502, 8-(4-((1-Isopropyl-2-methyl-1H-imidazo[4,5-c]pyridin-6-yl)amino)pyrimidin-2-yl)-2,8-diazaspiro[4.5]decan-1-one] here?
**A.** 0.118 µM

**Q.** How did the Ki turn out when `Cc1nc2cnc(Nc3ccnc(N4CCC(O)CC4)n3)cc2n1C(C)C` [Example 503, 1-(4-((1-Isopropyl-2-methyl-1H-imidazo[4,5-c]pyridin-6-yl)amino)pyrimidin-2-yl)piperidin-4-ol] was run?
**A.** 0.0334 µM

**Q.** With `CC(C)n1c(CO)nc2cnc(Nc3ccnc(N4CCC(O)CC4)n3)cc21` [Example 504, 1-(4-((2-(Hydroxymethyl)-isopropyl-1H-imidazo[4,5-c]pyridin-6-yl)amino)pyrimidin-2-yl)piperidin-4-ol] as the compound, how does the Ki read?
**A.** 0.0436 µM

**Q.** For `Cc1nc2cnc(Nc3ccnc(N4CCC5(CC4)OCCO5)n3)cc2n1C(C)C` [Example 506, N-(2-(1,4-Dioxa-8-azaspiro[4.5]decan-8-yl)pyrimidin-4-yl)-1-isopropyl-2-methyl-1H-imidazo[4,5-c]pyridin-6-amine], which Ki is on record?
**A.** 0.00978 µM

**Q.** `CC(C)n1c(CO)nc2cnc(Nc3ccnc(N4CCC(C(F)(F)F)CC4)n3)cc21` [Example 512, (1-Isopropyl-6-((2-(4-(trifluoromethyl)piperidin-1-yl)pyrimidin-4-yl)amino)-imidazo[4,5-c]pyridin-2-yl)methanol] was tested. Which Ki did it give?
**A.** 0.0803 µM

**Q.** For `CCC1CCN(c2nccc(Nc3cc4c(cn3)nc(CO)n4C(C)C)n2)CC1` [Example 513, (6-((2-(4-Ethylpiperidin-1-yl)pyrimidin-4-yl)amino)-1-isopropyl-1H-imidazo[4,5-c]pyridin-2-yl)methanol], which Ki is on record?
**A.** 0.149 µM

**Q.** For `Cc1nc2cnc(Nc3ccnc(N4CCc5nn(C)cc5C4)n3)cc2n1C(C)C` [Example 514, (1-Isopropyl-2-methyl-1H-imidazo[4,5-c]pyridin-6-yl)[2-(2-methyl-2,4,6,7-tetrahydropyrazolo[4,3-c]pyridin-5-yl)-pyrimidin-4-yl]amine], which Ki is on record?
**A.** 0.0726 µM

**Q.** For `COC1(CN(C)C)CCN(c2nccc(Nc3cc4c(cn3)nc(C)n4C(C)C)n2)CC1` [Example 515, [2-(4-Dimethylaminomethyl-4-methoxypiperidin-1-yl)pyrimidin-4-yl](1-isopropyl-2-methyl-1H-imidazo[4,5-c]pyridin-6-yl)amine], which Ki is on record?
**A.** 0.464 µM

**Q.** With `COCC1(OC)CCN(c2nccc(Nc3cc4c(cn3)nc(C)n4C(C)C)n2)CC1` [Example 516, (1-Isopropyl-2-methyl-1H-imidazo[4,5-c]pyridin-6-yl)[2-(4-methoxy-4-methoxymethylpiperidin-1-yl)pyrimidin-4-yl]amine] as the compound, how does the Ki read?
**A.** 0.064 µM

**Q.** For `COC1(CO)CCN(c2nccc(Nc3cc4c(cn3)nc(C)n4C(C)C)n2)CC1` [Example 517, {1-[4-(1-Isopropyl-2-methyl-1H-imidazo[4,5-c]pyridin-6-ylamino)pyrimidin-2-yl]-4-methoxypiperidin-4-yl}methanol], which Ki is on record?
**A.** 0.0135 µM

**Q.** For `Cc1nc2cnc(Nc3ccnc(NCC(C)(C)CN)n3)cc2n1C(C)C` [Example 518, N^2-(3-Amino-2,2-dimethylpropyl)-N^4-(1-isopropyl-2-methyl-1H-imidazo[4,5-c]pyridin-6-yl)pyrimidine-2,4-diamine], which Ki is on record?
**A.** 0.243 µM

**Q.** For `Cc1nc2cnc(Nc3ccnc(NCC(C)(C)CO)n3)cc2n1C(C)C` [Example 519, 3-[4-(1-Isopropyl-2-methyl-1H-imidazo[4,5-c]pyridin-6-ylamino)pyrimidin-2-ylamino]-2,2-dimethylpropan-1-ol], which Ki is on record?
**A.** 0.191 µM

**Q.** Which Ki does the source give for `COC1(CCO)CCN(c2nccc(Nc3cc4c(cn3)nc(C)n4C(C)C)n2)CC1` [Example 520, 2-{1-[4-(1-Isopropyl-2-methyl-1H-imidazo[4,5-c]pyridin-6-ylamino)pyrimidin-2-yl]-4-methoxypiperidin-4-yl}ethanol] here?
**A.** 0.0509 µM

**Q.** `COC1(CCN(C)C)CCN(c2nccc(Nc3cc4c(cn3)nc(C)n4C(C)C)n2)CC1` [Example 521, {2-[4-(2-Dimethylaminoethyl)-4-methoxypiperidin-1-yl]pyrimidin-4-yl}-(1-isopropyl-2-methyl-1H-imidazo[4,5-c]pyridin-6-yl)amine] was tested. Which Ki did it give?
**A.** 0.169 µM

**Q.** With `COCC(C)(C)CNc1nccc(Nc2cc3c(cn2)nc(C)n3C(C)C)n1` [Example 522, N^4-(1-Isopropyl-2-mcthyl-1H-imidazo[4,5-c]pyridin-6-yl)-N^2-(3-methoxy-2,2-dimethylpropyl)pyrimidine-2,4-diamine] as the compound, how does the Ki read?
**A.** 0.194 µM

**Q.** With `Cc1nc2cnc(Nc3ccnc(NCC(C)(C)C#N)n3)cc2n1C(C)C` [Example 523, 3-[4-(1-Isopropyl-2-methyl-1H-imidazo[4,5-c]pyridin-6-ylamino)pyrimidin-2-ylamino]-2,2-dimethylpropionitrile] as the compound, how does the Ki read?
**A.** 0.287 µM

**Q.** With `COC1CCN(c2nccc(Nc3cc4c(cn3)nc3n4C(C)(C)CO3)n2)CC1` [Example 532, N-(2-(4-methoxypiperidin-1-yl)pyrimidin-4-yl)-3,3-dimethyl-2,3-dihydrooxazolo[3′,2′:1,2]imidazo [4,5-c]pyridin-6-amine] as the compound, how does the Ki read?
**A.** 0.0515 µM

**Q.** `COC1(CO)CCN(c2nccc(Nc3cc4c(cn3)nc3n4C(C)(C)CO3)n2)CC1` [Example 533, (1-(4-((3,3-dimethyl-2,3-dihydrooxazolo[3′,2′:1,2]imidazo [4,5-c]pyridin-6-yl)amino)pyrimidin-2-yl)-4-methoxypiperidin-4-yl)methanol] was tested. Which Ki did it give?
**A.** 0.0785 µM

**Q.** How did the Ki turn out when `CC[C@H](C)n1c([C@@H](C)O)nc2cnc(Nc3ccnc(-c4cnn(S(=O)(=O)CC)c4)n3)cc21` [Example 535, (R)-1-{(S)-1-sec-Butyl-6-[2-(1-ethanesulfonyl-1H-pyrazol-4-yl)-pyrimidin-4-ylamino]-1H-imidazo[4,5-c]pyridin-2-yl}-ethanol] was run?
**A.** 0.00247 µM

**Q.** How did the Ki turn out when `COCCOc1nc2cnc(Nc3ccnc(-c4cnn(S(=O)(=O)C5CC5)c4)n3)cc2n1C(C)C` [Example 536, [2-(1-Cyclopropanesulfonyl-1H-pyrazol-4-yl)-pyrimidin-4-yl]-[1-isopropyl-2-(2-methoxy-ethoxy)-1H-imidazo[4,5-c]pyridin-6-yl]amine] was run?
**A.** 0.00646 µM

**Q.** For `COCCNc1nc2cnc(Nc3ccnc(-c4cnn(S(=O)(=O)C5CC5)c4)n3)cc2n1C(C)C` [Example 537, N^6-[2-(1-cyclopropanesulfonyl-1H-pyrazol-4-yl)-pyrimidin-4-yl]-1-isopropyl-N^2-(2-methoxyethyl)-1H-imidazo[4,5-c]pyridine-2,6-diamine], which Ki is on record?
**A.** 0.00249 µM

**Q.** With `Cc1nc2cnc(Nc3ccnc(-c4cnn(S(=O)(=O)C5CC5)c4)n3)cc2n1CC1CCOCC1` [Example 539, [2-(1-Cyclopropanesulfonyl-1H-pyrazol-4-yl)-pyrimidin-4-yl]-[2-methyl-1-(tetrahydropyran-4-ylmethyl)-1H-imidazo[4,5-c]pyridin-6-yl]amine] as the compound, how does the Ki read?
**A.** 0.0629 µM

— patent US9890152B2 (Genentech, Inc., priority 2012, dated 2018)
